Laboratory results from PubChem BioAssay AID652087 (The Scripps Research Institute Molecular Screening Center, 2013).
The source made the active and inactive calls.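 How the source made its calls: active means inhibition above 30%; inactive means inhibition at or below 30%.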

The chains behind the UniProt entries cited, without tags or fusion partners.
UniProt P21453, whole entry, looked up: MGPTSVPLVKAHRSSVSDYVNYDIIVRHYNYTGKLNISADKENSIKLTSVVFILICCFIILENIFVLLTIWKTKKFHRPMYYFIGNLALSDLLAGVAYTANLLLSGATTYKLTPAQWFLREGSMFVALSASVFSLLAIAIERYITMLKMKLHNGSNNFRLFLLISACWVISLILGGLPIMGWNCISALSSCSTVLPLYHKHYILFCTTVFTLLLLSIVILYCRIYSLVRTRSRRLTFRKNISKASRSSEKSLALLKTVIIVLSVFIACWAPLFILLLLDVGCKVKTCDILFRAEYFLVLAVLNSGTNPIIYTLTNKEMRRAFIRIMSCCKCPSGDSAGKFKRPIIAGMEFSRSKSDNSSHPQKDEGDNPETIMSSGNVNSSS

Target: Sphingosine 1-phosphate receptor 1 (Homo sapiens) (UniProt P21453)
Test: blockade of S1P-driven S1P1 signalling – cell-based, fluorescence, counter-screen for OPRK1 antagonist project, confirmation (AID 652087)
Conditions: Tango EDG-1-bla U2OS, beta-lactamase FRET, S1P antagonism; at 9 µM; hits give high values

**Q.** Which inhibition does the source give for `Cc1csc2c(NC3CCN(Cc4ccccc4)CC3)ncnc12` here?
**A.** inactive: -10.5%
